The text below walks through data of US7709479B1, “Quinazoline derivatives and their use as pharmaceuticals” (AstraZeneca, priority 1999, dated 2010).

Broadly, the IC50 is the point on the concentration scale where inhibition reaches its midpoint. Low values mean greater potency in that assay, high ones weaker potency in that assay.

Structures are written as SMILES.

The target of the test is T1, aurora2 kinase (Homo sapiens, UniProt O14965).
T1 sequence (O14965 1-403): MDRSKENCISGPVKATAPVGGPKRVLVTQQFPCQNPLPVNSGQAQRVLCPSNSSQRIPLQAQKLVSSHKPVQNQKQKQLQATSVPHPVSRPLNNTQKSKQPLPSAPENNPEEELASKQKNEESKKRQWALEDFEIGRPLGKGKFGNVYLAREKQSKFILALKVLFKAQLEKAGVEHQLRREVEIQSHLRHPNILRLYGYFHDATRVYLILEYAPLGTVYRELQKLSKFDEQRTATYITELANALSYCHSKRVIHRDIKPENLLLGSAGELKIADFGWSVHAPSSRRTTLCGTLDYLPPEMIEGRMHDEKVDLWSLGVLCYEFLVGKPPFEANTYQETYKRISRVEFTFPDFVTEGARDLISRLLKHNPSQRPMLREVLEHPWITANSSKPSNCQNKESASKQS
The test is described as follows: biochemical.

`COc1cc2ncnc(Nc3ccc(NC(=O)c4ccccc4)cc3)c2cc1OC` [Compound 1] showed an IC50 of 374 nM. Take `COc1cc2ncnc(Nc3ccc(C(=O)NCc4ccc(F)cc4)cc3)c2cc1OC` [Compound 557]: it took 519 nM to reach half-maximal inhibition (IC50).
